# Source: patent EP4644396A1 (Visionpharma (Nantong) Co., Ltd, priority 2022, dated 2024)
# Biological target: T1, human TLR7 (Homo sapiens, UniProt Q9NYK1)
# T1 sequence (Q9NYK1 27-1049): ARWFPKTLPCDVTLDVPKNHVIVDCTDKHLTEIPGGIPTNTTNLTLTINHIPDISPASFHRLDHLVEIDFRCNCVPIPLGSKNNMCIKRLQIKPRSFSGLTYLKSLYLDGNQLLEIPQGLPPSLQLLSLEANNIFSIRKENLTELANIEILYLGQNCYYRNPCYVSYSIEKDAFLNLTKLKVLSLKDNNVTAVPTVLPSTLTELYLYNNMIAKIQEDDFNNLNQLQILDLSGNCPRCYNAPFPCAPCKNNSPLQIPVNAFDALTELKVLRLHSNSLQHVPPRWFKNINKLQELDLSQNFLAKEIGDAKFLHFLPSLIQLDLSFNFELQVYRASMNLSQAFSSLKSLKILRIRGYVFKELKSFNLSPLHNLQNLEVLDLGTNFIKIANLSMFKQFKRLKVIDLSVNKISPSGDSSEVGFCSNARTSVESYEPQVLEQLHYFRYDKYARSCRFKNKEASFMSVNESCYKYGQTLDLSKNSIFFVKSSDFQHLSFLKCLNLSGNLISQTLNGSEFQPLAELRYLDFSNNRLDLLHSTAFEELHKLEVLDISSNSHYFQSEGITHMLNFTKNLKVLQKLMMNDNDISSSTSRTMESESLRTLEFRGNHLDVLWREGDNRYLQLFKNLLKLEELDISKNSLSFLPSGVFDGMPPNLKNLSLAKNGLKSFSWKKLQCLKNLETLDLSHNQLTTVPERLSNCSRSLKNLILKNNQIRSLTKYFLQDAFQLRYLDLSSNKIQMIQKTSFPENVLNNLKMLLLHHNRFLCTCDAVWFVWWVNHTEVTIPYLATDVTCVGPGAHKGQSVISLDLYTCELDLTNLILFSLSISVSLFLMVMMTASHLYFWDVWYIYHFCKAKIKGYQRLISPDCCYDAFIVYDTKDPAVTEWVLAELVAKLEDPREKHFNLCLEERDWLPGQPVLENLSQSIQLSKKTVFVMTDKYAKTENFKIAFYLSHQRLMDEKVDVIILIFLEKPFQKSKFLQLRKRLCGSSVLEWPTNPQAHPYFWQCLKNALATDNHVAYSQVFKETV
# Test: HEK-Blue hTLR7 SEAP reporter gene inhibition assay
# Type: cell-based
# Settings: hTLR7 HEK-Blue cells, TLR7 ligand Gardiquimod 10 µM, 20 hours, SEAP by Quanti-blue; class symbols
# Experimental: HEK-Blue cells with stable expression of human TLR7 or TLR8 were used in the evaluation of inhibitory activity of compounds in the present invention against TLR7 or TLR8, by using its ability to induce the SEAP reporting gene under the control of the fusion of IFN-β minimum promoters into five NF-κB and ap-1 binding sites, as follows: hTLR7 HEK-Blue cells (Invivogen, 80, 000 cells per well) or hTLR8 HEK-Blue cells (60, 000 cells per well) were added to a 96-well cell culture plate. A solution of the testing compounds were added to each well, with the final concentration of tested compounds in the medium ranged from 0.001 to 36 µM and the culture was incubated for 15 minutes. M5049 was used as positive controls in the testing.
# Then a TLR7 ligand (Gardiquimod, purchased from MedChemExpress, with final concentration of ligand in cell culture medium kept at 10 µM) or a TLR8 ligand (purchased from MedChemExpress with final concentration in cell culture media at 10 µM) and the culture was incubated for 20 hours. According to the manufacturer's instructions, a HEK-Blue reagent Quanti-blue (Invivogen) was used to detect the SEAP levels in cell cultures. The half […] concentration or IC50 was calculated by using GraphPad Prism. The IC50 values were defined as A and B (Against hTLR7 EC50(µM): A < 0.05 µM, B > 0.05 µM; against hTLR8 EC 50(µM): A < = 0.1 µM, B > 0.1 µM; -, as untested). […]
substance,measurement,value
"3-Fluoro-4-((4R,9S)-8-(2-(4-(2-hydroxyethyl)pyridoxine-1-yl)-2-oxyethyl)-4,9-dimethyl-3,4,7,8,9,10-hydropyridote [3 ', 4 ': 3, 4] pyrazole [1, 5-a] pyrazine-2 (1 H) - yl) pyrazole [1, 5-a] pyridine-7-nitrile [Example I-130]",IC50,< 50 nM
